Experimental findings from ChEMBL document CHEMBL1155485, “Pyrimidine ribonucleotides with enhanced selectivity as P2Y(6) receptor agonists: novel 4-alkyloxyimino, (S)-methanocarba, and 5'-triphosphate gamma-ester modifications” (J Med Chem, 2010) are described below.

Protein sequences, listed by entry. Tags and fused reporters are not part of them. Lines headed by an entry give the natural chain unless they say otherwise; changes in a name come on top.
UniProt Q15077: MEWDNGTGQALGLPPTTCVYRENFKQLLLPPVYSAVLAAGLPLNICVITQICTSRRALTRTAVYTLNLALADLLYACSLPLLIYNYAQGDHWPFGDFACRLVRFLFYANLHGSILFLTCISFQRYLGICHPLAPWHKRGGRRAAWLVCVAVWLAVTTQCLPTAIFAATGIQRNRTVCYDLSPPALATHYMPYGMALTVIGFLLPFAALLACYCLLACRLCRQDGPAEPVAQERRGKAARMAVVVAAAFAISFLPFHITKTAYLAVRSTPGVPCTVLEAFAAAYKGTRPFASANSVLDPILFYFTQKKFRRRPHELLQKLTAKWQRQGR

Molecules are shown by their SMILES.

This assay concerns the target P2Y purinoceptor 6 (Homo sapiens, UniProt Q15077). As to the kind of experiment: Agonist activity at human recombinant P2Y6 receptor expressed in human 1321N1 cells assessed as [3H]inositol phosphate production up to 10 uM by scintillation proximity assay. Type of assay: functional, cell-based. Summed up: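 Human 1321N1 astrocytoma cells stably expressing the human P2Y2 or P2Y6 receptor, seeded at 20,000 cells/well two days before assay. Inositol lipids labelled for 16 h with 1.0 μCi myo-[3H]inositol in serum-free, inositol-free DMEM. Agonist added in HEPES pH 7.3/HBSS with LiCl, 30 min at 37°C. Stopped with ice-cold 50 mM formic acid; [3H]inositol phosphates counted by scintillation proximity assay. Triplicates.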
For orientation: SPA uses beads or plates that emit light when radiolabelled molecules are held near them.

On to `O=c1ccn([C@@H]2O[C@H](COP(=O)(O)OP(=O)(O)OP(=O)(O)O)[C@@H](O)[C@H]2O)c(=O)[nH]1` [URIDINE TRIPHOSPHATE], for which the Activity was less than 50%.
